Results reported in ChEMBL document CHEMBL1151514, “Imetit and N-methyl derivatives. The transition from potent agonist to antagonist at histamine H3 receptors.1” (Bioorg Med Chem Lett, 1992).

Protein sequences, listed by entry. Tags and fused reporters are not part of them. Lines headed by an entry give the natural chain unless they say otherwise; changes in a name come on top.
UniProt Q9QYN8: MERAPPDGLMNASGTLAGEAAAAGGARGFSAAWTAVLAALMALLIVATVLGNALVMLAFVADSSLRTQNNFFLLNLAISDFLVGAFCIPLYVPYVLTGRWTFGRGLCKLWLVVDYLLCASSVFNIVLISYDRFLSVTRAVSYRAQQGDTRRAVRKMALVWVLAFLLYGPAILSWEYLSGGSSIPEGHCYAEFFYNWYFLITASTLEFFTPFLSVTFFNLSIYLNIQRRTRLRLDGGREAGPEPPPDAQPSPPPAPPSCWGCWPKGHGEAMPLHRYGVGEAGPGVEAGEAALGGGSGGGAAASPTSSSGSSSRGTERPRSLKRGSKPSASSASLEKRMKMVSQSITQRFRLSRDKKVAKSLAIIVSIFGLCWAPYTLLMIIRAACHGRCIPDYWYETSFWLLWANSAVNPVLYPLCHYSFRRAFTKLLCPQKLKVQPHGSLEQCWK

Biological target: Histamine H3 receptor (Rattus norvegicus, UniProt Q9QYN8)
Assay: The compound was evaluated for agonistic effect on release of [3H]histamine from rat brain cortical slices with L-[3H]histidine at 0.3 uM
Assay type: functional, tissue-based

With `N=C(N)SCCc1cnc[nH]1` [IMETIT DIHYDROBROMIDE] the EC50 was 1 nM.

Counter-ions that a name gives are not always drawn.
